# esBAF inh – SWI/SNF esBAF complex inhibition; reporter increase, % at 12.5 µM; AID 602393; 350,000 tested, 2% active; mouse ES cells, Bmi1-luciferase knock-in reporter, 24 h; 100% = twice the neutral-well signal; in the data active means activation above about 40%; inconclusive means no clear call, values can overlap the other calls;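 further: 0% = median of the plate's neutral control wells and 100% = double that signal; a rise in the Bmi1 reporter signal indicates esBAF inhibition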
# PglD inh – blocks C. jejuni PglD acetyltransferase activity; purified PglD enzyme, DTNB colorimetric CoA detection; AID 602405; inhibition, % at 12.5 µM; 360,000 tested, 0.098% active; in the data active means inhibition above about 16%, passing the limit was not always enough; inconclusive means no clear call, values can overlap the other calls
# Wnt act – Wnt/beta-catenin pathway activation | Wnt/beta-catenin reporter cell assay, activator, plate reader | activation, % at 9.35 µM | 300,000 tested, 1.2% active | AID 743398; in the data active means activation above about 30%, passing the limit was not always enough; inconclusive means no clear call, values can overlap the other calls;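 further: 0% = neutral control wells and 100% = positive control wells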
# UUG fidelity – modulators of yeast start codon fidelity, primary screen, whole organism, S. cerevisiae, single point, plate reader | AID 602363, 2012 | S. cerevisiae UUG-firefly luciferase reporter, luminescence/redox ratio | activity score, % at 18.7 µM | hit rate 0.13% among 350,000;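 active = replicate mean at a twofold rise or more, about +100% in these data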;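 also: firefly luciferase made from a UUG start codon reports start codon fidelity; reporter light over untreated wells divided by growth signal over untreated wells; some hits fall short of that in this replicate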
# MITF TRPM1 HTS – MITF TRPM1 promoter activation in melanoma cells; activation, % at 12.5 µM; 300,000 tested, 0.75% active; SK-MEL-5 TRPM1-promoter luciferase, 24 h; % of positive control, neutral wells = 0;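 active means mean activation of at least 80% with every replicate also reaching 80%; inconclusive means mean reaches 80% but some replicate falls short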;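 further: 0% = neutral control wells and 100% = parthenolide positive control wells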
# miR-122 sensor – blocks miR-122 activity in Huh7 sensor cells. activation (reporter increase), % at 12.5 µM. AID 602342. 340,000 tested, 0.3% active. Huh7 miR-122 Renilla luciferase sensor, 48 h; neutral wells = 0, positive control = 100;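 active means mean replicate activation score at least 90 and every replicate individually at or above 90; inconclusive means only one of the two criteria met; inactive means neither criterion met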;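 further: higher luciferase means less miR-122 activity so hits act as miR-122 inhibitors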
# * hit, by the source's call; ? = inconclusive; / = not tested or not shown; [ ] = remark or other dose. The list is not random: actives were taken first. Their share in the collection is about 2.8%.
# The first three entries, ahead of the listing:
no. | esBAF inh | PglD inh | Wnt act | UUG fidelity | MITF TRPM1 HTS | Compound | miR-122 sensor
1 | 59* | 0 | 23 | -21 | ? | CCn1ccnc1CN(C)C(=O)c1cc(COc2ccccc2SC)on1 | -1
2 | / | -4 | 16 | -5 | 117* | CSc1ccccc1OCc1cc(C(=O)N(C)Cc2ccncn2)no1 | -4
3 | 29 | 5 | 0 | -10 | 6 | CSc1ccccc1OCc1cc(C(=O)N(Cc2nccn2C)C(C)C)no1 | 1

# The listing, from the start:
no. | esBAF inh | PglD inh | Wnt act | UUG fidelity | MITF TRPM1 HTS | Compound | miR-122 sensor
1 | 59* | 0 | 23 | -21 | ? | CCn1ccnc1CN(C)C(=O)c1cc(COc2ccccc2SC)on1 | -1
2 | / | -4 | 16 | -5 | 117* | CSc1ccccc1OCc1cc(C(=O)N(C)Cc2ccncn2)no1 | -4
3 | 29 | 5 | 0 | -10 | 6 | CSc1ccccc1OCc1cc(C(=O)N(Cc2nccn2C)C(C)C)no1 | 1
4 | 65* | 1 | 21 | -16 | 150* | CSc1ccccc1OCc1cc(C(=O)N(C)Cc2nonc2C)no1 | -9
5 | 7 | -3 | 11 | -14 | 34 | Cc1nonc1CN(C)C(=O)c1cc(COc2ccc(F)cc2Cl)on1 | 1
6 | 78* | 3 | 26 | -24 | 96* | CSc1ccccc1OCc1cc(C(=O)NCc2cccc(C)n2)no1 | -5
7 | 1 | -2 | / | 11 | / | C[C@H]1CN([C@@H](C)CO)C(=O)c2cccc(NC(=O)Nc3ccc(F)cc3)c2O[C@@H]1CN(C)S(C)(=O)=O | 10[16.7 µM]
8 | 14 | / | -3 | / | 12 | CCc1ccc(-c2cc(C)no2)cc1S(=O)(=O)NCCc1ccc(OC)c(OC)c1 | 132*
9 | -3 | / | -3 | / | 10 | CCc1ccc(-c2cc(C)no2)cc1S(=O)(=O)NCc1ccco1 | 159*
10 | 0 | 18 | / | 4 | / | CC(C)CC#Cc1cnc2c(c1)C(=O)N([C@@H](C)CO)C[C@@H](C)[C@@H](CN(C)C(=O)CN1CCOCC1)O2 | 8[16.7 µM]
11 | 57* | 0 | / | -15 | 67 | CN(c1ccc(C(=O)N2CCOCC2)cc1[N+](=O)[O-])C1CCCCC1 | -5
12 | 9 | -3 | 0 | -4 | / | CN(C(=O)c1ccc(N2CCOCC2)c([N+](=O)[O-])c1)C1CCCCC1 | /
13 | -6 | -5 | -1 | -25 | -8 | COCCNC(=S)N/N=C/c1ccccc1C(=O)O | 7
14 | 49* | / | 3 | / | / | COCCCNC(=S)N/N=C/c1ccccc1O | 2
15 | 66* | 0 | 23 | -40 | 43 | Oc1ccccc1/C=N/NC(=S)NC1CC2CCC1C2 (stereo unspecified) | 44
16 | 3 | -1 | / | -14 | / | O=C(C[C@@H]1C=C[C@H](NS(=O)(=O)c2ccccc2)[C@@H](CO)O1)NCc1ccncn1 | /
17 | 1 | -4 | 40* | -7 | 45 | COc1cccc2oc3ccc(C#Cc4ccccn4)cc3c(=O)c12 | -3
18 | 70* | -2 | 26 | 1 | 124* | C=CCn1c2ccccc2c(=O)c2cc(C#Cc3ccccn3)ccc21 | -1
19 | -25 | -3 | 34* | -13 | 25 | O=c1c2ccccc2oc2cc(C#Cc3ccccn3)ccc12 | -7
20 | ? | 1 | 13 | 4 | 101* | COc1cccc2sc3cc(C#Cc4ccccn4)ccc3c(=O)c12 | 4
21 | 11 | 3 | 14 | -9 | 25 | COc1cc2sc3ccc(C#Cc4ccccn4)cc3c(=O)c2cc1OC | -4
22 | -2 | / | / | 5 | / | COc1ccc(S(=O)(=O)Nc2cccc3c2O[C@@H](CN(C)Cc2ccc(Cl)c(Cl)c2)[C@H](C)CN([C@@H](C)CO)C3=O)cc1 | 7[16.7 µM]
23 | -3 | 4 | / | 4 | / | C[C@@H]1CCCCO[C@H](CN(C)C(=O)Cc2ccccc2)[C@@H](C)CN([C@@H](C)CO)C(=O)c2cc(NC(=O)C3CCCCC3)ccc2O1 | 6[16.7 µM]
24 | -1 | 1 | / | -5 | / | COCC(=O)Nc1ccc2c(c1)C(=O)N(C)[C@H]1CC[C@H](CC(=O)O)O[C@@H]1CO2 | 54[16.7 µM]
25 | / | 0 | -24 | -5 | -29 | COc1ccc(/C=N/NC(=O)COc2ccccc2-c2ccccc2)cc1 | 129*
26 | 45* | -2 | / | -16 | 15 | COc1ccc(/C=C/C(=O)Oc2cccc(/C=N/NC(=O)COc3c(C)cccc3C)c2)cc1 | /
27 | 3 | 0 | / | -15 | -2 | COc1ccc(/C=C/C(=O)Oc2ccc(/C=N/NC(=O)COc3c(C)cccc3C)cc2)cc1 | 2
28 | -1 | -2 | / | / | / | O=C(C[C@H]1CC[C@H]2[C@@H](COC[C@@H](O)CN2Cc2nccs2)O1)NCc1ccc(F)cc1 | 1[16.7 µM]
29 | -9 | 3 | / | -5 | / | C[C@@H]1CN([C@@H](C)CO)C(=O)c2cccc(NC(=O)C3CC3)c2O[C@@H]1CN(C)Cc1ccc(C(F)(F)F)cc1 | 12[16.7 µM]
30 | / | -5 | -2 | 1 | -3 | O=C1c2ccccc2NC(c2ccc(-c3ccc(Br)cc3)o2)N1O (stereo unspecified) | -3
31 | 41* | -2 | ? | -9 | 71 | O=C1c2ccccc2NC(c2ccc(-c3ccc(F)cc3)o2)N1O (stereo unspecified) | /
32 | 11 | 3 | / | -13 | / | CCCNC(=O)Nc1ccc2c(c1)C(=O)N(C)[C@@H]1CC[C@H](CC(=O)NCCCN(C)C)O[C@H]1CO2 | 22[16.7 µM]
33 | / | / | / | / | 10 | COC(=O)c1cc2c(ccn2-c2ccc(F)cc2)n1Cc1ccc(OC)cc1 | /
34 | 71* | -7 | 84* | -9 | 121* | CCn1c(C(=O)OC)cc2c1ccn2-c1ccc(F)cc1 | 2
35 | 64* | 5 | 6 | -27 | 44 | CCOC(=O)c1csc(NC(=O)c2cc3ccccc3o2)n1 | -1
36 | 50* | -2 | ? | 2 | / | CCOC(=O)c1csc(NC(=O)c2ccccc2)n1 | -7
37 | 51* | -3 | -1 | -18 | 48 | CCOC(=O)Cc1cnc(NC(=O)c2ccccc2)s1 | 1
38 | -4 | 0 | / | 0 | / | C[C@@H]1CN([C@H](C)CO)C(=O)c2cc(C#Cc3ccccc3F)cnc2O[C@H]1CN(C)C | -4[16.7 µM]
39 | 0 | 3 | / | 33 | / | CCCNC(=O)N1[C@H](CN(C)C(C)=O)[C@@H](c2ccc(C3=CCCC3)cc2)[C@@H]1CO | -14[16.7 µM]
40 | 66* | 4 | / | -10 | / | COc1ccc(C(=O)/C=C/Nc2cc(C)on2)c(OC)c1 | 5
41 | 24 | 2 | 35* | -13 | 10 | COc1ccc(C(=O)/C=C/c2ccccc2F)c(OC(=O)c2ccc([N+](=O)[O-])cc2)c1 | 2
42 | 86* | -6 | 1 | -21 | 38 | COc1ccc(C(=O)/C=C/c2ccccc2)c(OC)c1 | 11
43 | / | -2 | -2 | -22 | 20 | COc1ccc(C(=O)/C=C/Nc2ccc([N+](=O)[O-])cc2C)c(OC)c1 | 0
44 | / | 1 | 13 | 10 | 28 | COc1ccc(C(=O)/C=C/c2ccc(C)cc2)c(OC(=O)c2ccc([N+](=O)[O-])cc2)c1 | 5
45 | / | -9 | 1 | 1 | / | COc1ccc(C(=O)/C=C/c2ccc(N(C)C)cc2)c(OC)c1 | 212*
46 | / | / | -3 | / | 71 | CN(C)c1ccc(/C=C/C(=O)c2ccccc2O)cc1 | /
47 | -9 | 1 | / | 39 | / | O=C(N[C@H]1CC[C@@H](CCNC(=O)c2ccccc2F)O[C@@H]1CO)c1cnccn1 | /
48 | -1 | -1 | / | 30 | / | C[C@H](CO)N1C[C@H](C)[C@H](CN(C)C(=O)Nc2ccc(F)cc2)Oc2ncc(C#C[C@@H](C)O)cc2C1=O | -3[16.7 µM]
49 | -1 | -2 | / | -12 | / | O=C(Nc1ccc2c(c1)[C@@H]1C[C@H](CC(=O)N3CCOCC3)O[C@H](CO)[C@@H]1O2)c1cccnc1 | -3[16.7 µM]

# Three of the compounds above, screen by screen.
(23) C[C@@H]1CCCCO[C@H](CN(C)C(=O)Cc2ccccc2)[C@@H](C)CN([C@@H](C)CO)C(=O)c2cc(NC(=O)C3CCCCC3)ccc2O1
(24) COCC(=O)Nc1ccc2c(c1)C(=O)N(C)[C@H]1CC[C@H](CC(=O)O)O[C@@H]1CO2
(25) COc1ccc(/C=N/NC(=O)COc2ccccc2-c2ccccc2)cc1
Assay by compound	23	24	25
esBAF inh	-3	-1	/
PglD inh	4	1	0
Wnt act	/	/	-24
UUG fidelity	4	-5	-5
MITF TRPM1 HTS	/	/	-29
miR-122 sensor	6[16.7 µM]	54[16.7 µM]	129*

# From PubChem
